Literature values as cited in paper PMC8041276 (ACS Chemical Neuroscience, 2021).

By UniProt entry, the sequences of proteins in these tests, tags left out.
UniProt P50406, whole entry: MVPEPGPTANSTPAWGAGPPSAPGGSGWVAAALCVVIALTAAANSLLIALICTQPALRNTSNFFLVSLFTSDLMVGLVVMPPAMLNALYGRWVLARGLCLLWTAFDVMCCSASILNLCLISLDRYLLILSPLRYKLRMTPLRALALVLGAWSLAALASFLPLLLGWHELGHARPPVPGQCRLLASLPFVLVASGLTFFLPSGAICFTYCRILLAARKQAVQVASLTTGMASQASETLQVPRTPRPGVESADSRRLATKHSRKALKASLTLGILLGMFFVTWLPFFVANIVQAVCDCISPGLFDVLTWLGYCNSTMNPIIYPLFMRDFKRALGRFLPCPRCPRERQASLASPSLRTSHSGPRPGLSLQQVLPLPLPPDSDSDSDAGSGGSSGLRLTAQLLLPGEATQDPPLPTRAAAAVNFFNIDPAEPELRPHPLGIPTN

Molecular target: 5-HT6R (Homo sapiens, UniProt P50406)
Conditions: 5-HT6R-dependent Gs signaling; cited from earlier work

In the case of `O=S(=O)(c1cccc(Cl)c1)n1ccc2c(N[C@H]3CCNC3)nc3ccccc3c21` [CPPQ, (S)-1-[(3-chlorophenyl)sulfonyl]-4-(pyrrolidine-3-yl-amino)-1H-pyrrolo[3,2-c]quinoline], the functional profile is given as “neutral antagonist”.
